{"source": "patent US20100330029A1", "about": "“Cancer Treatments with Radiation and Immunocytokines” (Merck Patent GmbH, priority 2008, published 2010)", "key": {"[1]": {"tested_on": "Lewis lung carcinoma (LLC)", "test": "tumor growth assay, Lewis lung carcinoma model", "format": "in vivo, mice", "conditions": "LLC-8, LLC-9", "protocol": "LL/2 (LLC) cells, a murine Lewis lung carcinoma cell line, were maintained in DMEM, supplemented with 10% heat-inactivated fetal bovine serum, L-glutamine, penicillin/streptomycin (Life Technologies, Inc.) at 37° C. and 7% CO2. LLC cells were implanted in female C57BL/6 mice.\nFor the tumor growth assay, cells growing exponentially in culture were injected as a single cell suspension in 100 μl of PBS intramuscularly into the upper legs of the mice. In experiments using a dual tumor model, cells were also implanted in the flanks of the mice. After tumors had become established, treatment was initiated (day 0). In Experiment LLC-7, tumors were implanted in the flank until established. […] Thereafter, animal survival was monitored. […] Mice were treated on days 0 to 6 and day 17, and tumor size was measured twice weekly for the duration of the study.\nTumors were measured with calipers in three dimensions for the duration of the experiment. Tumor volumes were calculated using the equation: […]\nData from the subcutaneous tumor growth assay are presented in graphic form depicting average and standard deviations (sd) of tumor volumes or weights during and after dosing. Animal weight changes were determined by subtracting the animal weight at each time point from the initial body weight, on day 0, then dividing by the initial body weight and multiplying by 100. […]"}, "[2]": {"tested_on": "Lewis Lung Carcinoma cells", "test": "rechallenge of cured mice with Lewis Lung Carcinoma cells", "format": "in vivo", "conditions": "LLC-8, LLC-9; combination with chemoradiation", "protocol": "The ability of irradiation followed by intravenous administration of the exemplary immunocytokine EMD521873 to generate a long lasting immune response was tested by rechallenging cured mice with tumor cells. Mice bearing Lewis Lung Carcinoma tumors were originally treated with either fractionated radiation (3.6 Gy/d, d0-4) plus cisplatin (4 mg/kg, d0), EMD521873 alone (5 mg/kg, d7, 8, 9), or the combination of EMD521873 plus chemoradiation. The number of complete responses was determined and then those mice that had achieved complete remissions for greater than 50 days were rechallenged by s.c. injection of LLC cells followed by monitoring of tumor growth compared to naïve mice that had not previously been treated."}}}
{"substance": "IL-2: exemplary cytokine IL-2 used as comparator with chemoradiation [reference compound]", "values": [{"measurement": "animals with complete response", "setting": "[1]; combination with chemoradiation", "result": "2/6"}, {"measurement": "T/C", "setting": "[1]; day 21, combination with chemoradiation (cisplatin 4 mg/kg d0 plus 3.6 Gy/d d0-4)", "result": 0.09}, {"measurement": "mice with complete responses immune to rechallenge with LLC cells", "setting": "[2]", "result": "neither of the 2"}]}
